## Binding of CDR-mutated scFvs to a peptide of the spike HR2 region

Binding partner: SARS-CoV-2 spike HR2 peptide, sequence PDVDLGDISGINAS.

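The starting antibody came from a phage panning campaign against this peptide. These sequences belong to a second round, designed from the earlier measurements on random variants of the parent. Group labels follow the data file (En: ensemble of fine-tuned language models; HC: hill climbing; Gen: genetic algorithm; Gibbs: Gibbs sampling; a sequence that several methods proposed may carry one label only). In AlphaSeq, yeast of one mating type display the scFv and yeast of the other type display the target. Binding brings cells together so that they mate, and sequencing counts the barcode pairs among the diploids. A regression on co-assayed BCL2-family reference pairs converts the normalised counts of each replicate to an apparent Kd. The assay was run in six technical replicates.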

Ab-14 is the parent antibody, in scFv form: VH, then three GGGGS repeats, then VL. The light chain is unchanged in all variants.
VH: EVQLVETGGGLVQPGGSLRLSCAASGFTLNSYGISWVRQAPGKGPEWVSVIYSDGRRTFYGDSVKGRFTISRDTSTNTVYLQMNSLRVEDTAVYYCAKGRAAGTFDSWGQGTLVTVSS
VL: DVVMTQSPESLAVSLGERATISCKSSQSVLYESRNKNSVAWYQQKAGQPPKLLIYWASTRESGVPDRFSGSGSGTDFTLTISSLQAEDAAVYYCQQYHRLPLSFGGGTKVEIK

Each variant is given by its three heavy chain CDRs, as the data file delimits them; those of the parent are GFTLNSYGIS, VIYSDGRRTFYGDSVK, GRAAGTFDS.
This list holds designs with more than six substitutions.
Kd is apparent (estimated from mating counts) and averaged on the log scale over replicates with a signal. Smaller is tighter.
A pair that was not seen in any replicate is written "nd"; this usually means weak binding, but a binder can also be missed.

The variant GFDINEYGVS / VIYADGMRTAYTDSVK / GEGAWIALV [En_Gibbs] gave 220 nM (1 of 6 replicates).
The variant GFDLDEYGIS / VIYADGQRFAYAQQFK / GEAGGAFDL [En_Gibbs] gave 4.1 nM (6 of 6 replicates).
The variant GFDLNEYGIS / VIYADGRRTAYADKVK / GQNAGTFDV [En_Gen] gave 320 pM (6 of 6 replicates).
The variant GFKLEEYGIS / VIYADGKRVAYQDAVK / GKHAGMFMV [En_Gibbs] gave nd (0 of 6 replicates).
The variant GMDIEDYGIS / VIYADGKRKAYAQKFK / GHTGGTFGD [En_Gibbs] gave 3.4 nM (4 of 6 replicates).
The variant GENLDEYGIS / VIYADGVRSQYTDQVK / GVETGAVLD [En_Gibbs] gave 250 nM (4 of 6 replicates).
The variant GFDLNEYGIS / VIYADGMRTAYADDVK / GEVAGTFDV [En_Gen] gave 400 pM (6 of 6 replicates).
The variant GFDLDEYGIS / VIYADGQRTAYTDSVK / GQNAGTFDV [En_Gen] gave 8.0 nM (6 of 6 replicates).
The variant GFDLNEYGIS / VIYADGMRTFYSDSVK / GENAGTFDI [En_Gen] gave 2.7 nM (6 of 6 replicates).
The variant GFDLNEYGIS / VIYADGQRTAYADSVK / GENAGTFDM [En_Gen] gave 500 pM (6 of 6 replicates).
The variant GFDLNEYGIS / VIYADGRRTFYADSVK / GNTAGTFDE [En_HC] gave 1.2 nM (6 of 6 replicates).
The variant GFDLDEYGIS / VIYADGMRTAYSDDVK / GNVAGTFDT [En_Gen] gave 98 pM (6 of 6 replicates).
The variant GFNLNEYGIS / VIYADGMRKFYADSVK / GNTAGTFDS [En_HC] gave 660 pM (6 of 6 replicates).
The variant GFDLNEYGIS / VIYADGMRTAYSDSVK / GEQAGTFDI [En_Gen] gave 3.8 nM (6 of 6 replicates).
The variant GFNLDEQGIS / VIYADGVRCSYAQSVK / GKSSGFIDT [En_Gibbs] gave nd (0 of 6 replicates).
The variant GFDLDEYGIS / VIYADGMRTAYADSVK / GTNAGTFDT [En_Gen] gave 180 pM (6 of 6 replicates).
The variant GFDLNEYGIS / VIYADGQRTFYTDSVK / GEVAGTFDV [En_HC] gave 340 pM (6 of 6 replicates).
The variant GFDIDEYGIS / VIYADGTRTAVDPSFK / GQMAGFFTN [En_Gibbs] gave nd (0 of 6 replicates).
The variant GKDIESYGVS / VIYADGKRTAYANKFK / GSNAGSFVM [En_Gibbs] gave nd (0 of 6 replicates).
The variant GFNLNEYGIS / VIYADGVRTFYTDDVK / GEVAGTFDL [En_HC] gave 190 pM (6 of 6 replicates).
The variant GFDLNEYGIS / VIYADGVRTAYANSVK / GNVAGTFDV [En_Gen] gave 150 pM (6 of 6 replicates).
The variant GFDLNEYGIS / VIYADGVRTAYSDDVK / GNVAGTFDV [En_Gen] gave 4.2 nM (6 of 6 replicates).
The variant GFDLNEYGIS / VIYADGMRTAYADNVK / GNTAGTFDV [En_Gen] gave 200 pM (6 of 6 replicates).
The variant GFNLDEYGIS / VIYADGMRRAYSDEVK / GGFSDILLM [En_Gibbs] gave nd (0 of 6 replicates).
The variant GFDLDEYGIS / VIYADGMRTFYQDSVK / GQAAGTFDQ [En_HC] gave 570 pM (6 of 6 replicates).
The variant GFNLDEYGIS / VIYADGRRTGYQDKFK / GANNFSVLM [En_Gibbs] gave nd (0 of 6 replicates).
The variant GFDLNEYGIS / VIYADGRRTFYSDSVK / GEAAGFFDV [En_HC] gave 180 nM (4 of 6 replicates).
The variant GFDLDEYGIS / VIYADGRRTAYADSVK / GNVAGTFDQ [En_Gen] gave 180 pM (6 of 6 replicates).
The variant GFNIQEYGIS / VIYADGKRTAYAEPVK / GEMGGTIDT [En_Gibbs] gave nd (0 of 6 replicates).
The variant GFDLDEYGIS / VIYADGLRTAYADSVK / GENAGTFDV [En_Gen] gave 650 pM (6 of 6 replicates).
The variant GQNLDEYGIS / VIYADGMRKYYADNVK / GKSVGSIII [En_Gibbs] gave nd (0 of 6 replicates).
The variant GFNLNEYGIS / VIYADGRRTFYADSVK / GGSAGTFDV [En_HC] gave 830 pM (6 of 6 replicates).
The variant GVNLDEYGIS / VIYADGVRSHYAESVK / GQHGTFGVA [En_Gibbs] gave nd (0 of 6 replicates).
The variant GFDLDEYGIS / VIYADGRRTAYTDSVK / GENAGTFDV [En_Gen] gave 3.7 nM (6 of 6 replicates).

Picked from the list: the 6 lowest averages where every replicate gave a value.

CDR-H1	CDR-H2	CDR-H3	group	Kd	replicates with signal
GFDLDEYGIS	VIYADGMRTAYSDDVK	GNVAGTFDT	En_Gen	98 pM	6/6
GFDLNEYGIS	VIYADGVRTAYANSVK	GNVAGTFDV	En_Gen	150 pM	6/6
GFDLDEYGIS	VIYADGMRTAYADSVK	GTNAGTFDT	En_Gen	180 pM	6/6
GFDLDEYGIS	VIYADGRRTAYADSVK	GNVAGTFDQ	En_Gen	180 pM	6/6
GFNLNEYGIS	VIYADGVRTFYTDDVK	GEVAGTFDL	En_HC	190 pM	6/6
GFDLNEYGIS	VIYADGMRTAYADNVK	GNTAGTFDV	En_Gen	200 pM	6/6

Of ten entries with the parent sequence, four were seen in most replicates (averages 2.2 nM to 240 nM), three in one and three in none, so single entries are noisy.
A sequence measured in both rounds can read differently, since the two assays cover different ranges.
As a blank, each scFv also met three strains without target: over all heavy chain designs, 1% of these pairings were detected, typically at 120 nM and seldom below 7.0 nM.
In the paper, a design with two or fewer of six values counts as a poor binder.

Values reported by Li et al. 2023, doi:10.1038/s41467-023-39022-2 (FLAb copy).